A word on the Ki: it is the equilibrium dissociation constant of an inhibitor or competing ligand from its target.

By UniProt entry, the sequences of proteins in these tests, tags left out. Where a name states a change or a piece, a line headed by the entry shows the natural chain unless it says otherwise.
UniProt P28335: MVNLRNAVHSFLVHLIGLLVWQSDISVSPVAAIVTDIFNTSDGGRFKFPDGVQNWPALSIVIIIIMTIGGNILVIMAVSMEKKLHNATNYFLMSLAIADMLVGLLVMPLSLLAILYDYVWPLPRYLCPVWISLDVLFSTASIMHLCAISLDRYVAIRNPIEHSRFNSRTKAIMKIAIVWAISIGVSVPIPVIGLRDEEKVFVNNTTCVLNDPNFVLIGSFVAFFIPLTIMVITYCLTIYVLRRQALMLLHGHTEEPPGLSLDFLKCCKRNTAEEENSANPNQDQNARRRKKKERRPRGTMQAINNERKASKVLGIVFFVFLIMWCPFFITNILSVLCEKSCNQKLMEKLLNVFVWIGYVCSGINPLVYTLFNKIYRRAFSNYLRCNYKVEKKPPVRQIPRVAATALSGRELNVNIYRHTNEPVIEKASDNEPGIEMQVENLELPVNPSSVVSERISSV

The assay has as its target 5-hydroxytryptamine receptor 2C (Homo sapiens, UniProt P28335). Kind of assay: Binding affinity to human cloned 5HT2C receptor by radioligand binding assay.

In turn, `O=C(CCCN1C2CCC1CC(O)(c1ccc(Cl)cc1)C2)c1ccc(F)cc1` (stereo unspecified) yielded a Ki of 872 nM.
